The list shows a part of the results, in another mix than the full data. Some of these compounds have results that are not shown, active ones among them. Records with an inconclusive call do not appear. Calls of active or inactive are those of the source. Calls come from the whole dose curve; as a rule, active = well fitted cell-killing curve with a large enough effect; inconclusive = small, poorly fitted or top-dose-only effect; inactive = no such curve, though single readings can be large or run the other way.
Test: qHTS Screen for Compounds that Selectively Target Cancer Cells with p53 Mutations: Cytotoxicity of p53 Null Cells at the Permissive Temperature;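 note: 0% = DMSO only and -100% = full killing by 100 µM tamoxifen; nearly all actives have a fitted effect of over 55% in size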
Details: H1299-neo p53 null cells, ATP luminescence, 24 h, 32C; at 46.1 µM (top of the series)
Description: NIH Chemical Genomics Center [NCGC] NIH Molecular Libraries Screening Centers Network [MLSCN] MLSCN Grant: 1 X01 MH079844-01 Assay Submitter (PI): Dr. SUN, YI, University of Michigan NCGC Assay Overview: Synthetic Lethal Screen for Compounds to Kill Cancer Cells with p53 Mutation. Tumor suppressor gene p53 serves as a major cellular barrier against tumorigenesis. […] The goal of this screening is to identify small molecule probes that selectively kill cancer cells with mutations in p53. This screening was carried out using two lines of H1299 lung cancer cells. The H1299-p53 A138V line express a temperature sensitive p53 mutant (p53ts) in which the mutant p53 protein (A138V) is in the mutant confirmation when grown at 39C (the nonpermissive temperature) and in the wild type conformation when grown at 32C (the permissive temperature). A H1299-neo line (p53 null) grown at both 39C and 32C were used as counter-screens to filter out false positive associated with temperature shifting. The small molecular compounds that selectively target mutant p53-containing cancer cells were selected as candidate probes for further study. A cytotoxicity assay based on the measurement of ATP contents in cells was used in this screen. Concentration-responses of all the compounds in the library collection were determined in qHTS using the cell lines and temperature conditions as above.
NCGC Assay Protocol Summary: Both the H1299-p53A138V and H1299-neo cell lines were provided by Dr.Yi Sun, a PI at the University Michigan. The cells were maintained and cultured at 37C. The resuspended frozen cells were used to plate the cells in the 1536-well assay plates at a density of 600 cells per well in 5 ul medium. The assay plates with the cells were incubated at 37C for 16 to 30 hours before the experiments. The library compounds in DMSO solution were added to the cells in assay plates and incubated 24 hours at 39C (for mutant p53 conformation) or 32C (for normal p53 conformation as control). An ATP_lite assay kit (PerkinElmer) was used to determine the cell viability. Tomaxifen (100uM) was used as the positive control for cell killing. Data were normalized to the controls for basal activity (DMSO only) and 100% killing (100uM tamoxifen). AC50 values were determined from concentration-response data modeled with the standard Hill equation. P53 assay protocol: 1. Reagent; 5 uL H1299-p53A138V or H1299-neo cell cells/well 2. Time; overnight; 37C incubation 3. Compounds; 23 nL; 5.9 nM to 46 uM 4. Controls; 23 nL; Tamoxifen 100 uM 5. Time; 24 hr; 32C incubation 6. Reagent; 3 uL; ATP_Lite reagent 7. Time; 20 min; Room Temperature 8. Detection; Luminescence; Viewlux plate reader Keywords: p53, synthetic lethal, cancer, cell viability, cytotoxicity, H1299 cell line, luminescence, MLSMR, MLSCN, NIH Roadmap, qHTS, NCGC

For `CC(C)Oc1ccc(C(=O)NCC2(N(C)C)CCCCC2)cc1`, which activity change, negative = cytotoxicity is on record?
The activity change, negative = cytotoxicity was inactive: 6.43%.

With `COc1cc(C(=O)NCC2(N(C)C)CCCCC2)cc(OC)c1OC` as the compound, how does the activity change, negative = cytotoxicity read?
Its activity change, negative = cytotoxicity is inactive: -1.41%.

Which activity change, negative = cytotoxicity does the source give for `Cc1cccc(C(=O)NCC2(N(C)C)CCCCC2)c1` here?
Its activity change, negative = cytotoxicity is inactive: -5%.

With `CC(C)COc1ccc(C(=O)NCC2(N(C)C)CCCCC2)cc1` as the compound, how does the activity change, negative = cytotoxicity read?
The activity change, negative = cytotoxicity was inactive: 0.296%.

Which activity change, negative = cytotoxicity does the source give for `COc1cccc(C(=O)NCC2(N3CCOCC3)CCCCC2)c1` here?
The activity change, negative = cytotoxicity was inactive: 4.39%.

Which activity change, negative = cytotoxicity does the source give for `COc1ccc(C(=O)NCC2(N(C)C)CCCCC2)cc1Cl` here?
The activity change, negative = cytotoxicity was inactive: -1.34%.

With `CCOc1cccc(C(=O)NCC2(N(C)C)CCCCC2)c1` as the compound, how does the activity change, negative = cytotoxicity read?
Its activity change, negative = cytotoxicity is inactive: 0.759%.

Which activity change, negative = cytotoxicity does the source give for `CCCCOc1ccccc1C(=O)NCC1(N(C)C)CCCCC1` here?
Its activity change, negative = cytotoxicity is inactive: -1.62%.

With `CN(C)C1CCCC1OC(=O)C(O)(c1ccccc1)c1ccccc1` (configuration not stated) as the compound, how does the activity change, negative = cytotoxicity read?
Its activity change, negative = cytotoxicity is inactive: -4.11%.

With `CN(C)C1(CNC(=O)c2ccccc2[N+](=O)[O-])CCCCC1` as the compound, how does the activity change, negative = cytotoxicity read?
The activity change, negative = cytotoxicity was inactive: 3.29%.

With `CN(C)C1(CNC(=O)c2ccccc2F)CCCCC1` as the compound, how does the activity change, negative = cytotoxicity read?
The activity change, negative = cytotoxicity was inactive: -3.93%.

With `CN(C)C1(CNC(=O)c2cccc(Cl)c2)CCCCC1` as the compound, how does the activity change, negative = cytotoxicity read?
The activity change, negative = cytotoxicity was inactive: 0.394%.

Reference: PubChem BioAssay AID903 (National Center for Advancing Translational Sciences (NCATS), 2007)
